Statin myotox sup – suppressors of statin myotoxicity in C2C12 myotubes, primary screen, cell-based, single point, plate reader | rescue of ATP level, % at 7.49 µM | C2C12 myotubes + simvastatin, ATP luminescence, 48 h; scaled: DMSO 0, geranylgeraniol control 100 | 0.78% of 330,000 active;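 active = mean ATP rescue above about 67%, or every replicate alone reaching that limit, limit read from the data, passing the limit was not always enough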;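 also: myotubes were challenged with 10 µM simvastatin during compound exposure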
Yeast UUG start-1 – modulators of start codon recognition fidelity in yeast; S. cerevisiae UUG-firefly luciferase reporter, luminescence/redox ratio; AID 602363; 350,000 tested, 0.13% active; activity score, % at 18.7 µM;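 active = replicate mean at a twofold rise or more, about +100% in these data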;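 also: firefly luciferase made from a UUG start codon reports start codon fidelity; reporter light over untreated wells divided by growth signal over untreated wells; some hits fall short of that in this replicate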
PGC1a acetyl inh – inhibitors of PGC1a acetylation signal, primary screen, cell-based, U2OS, AlphaScreen, inhibitor mode; AlphaScreen anti-acetyl-lysine; with virally co-expressed GCN5 acetyltransferase; inhibition, % at 15.6 µM; 0.17% of 350,000 active;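 active = every replicate shows inhibition of at least 40%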;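 also: 0% = neutral control wells and 100% = positive control wells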
PglD inh – C. jejuni PglD acetyltransferase inhibitors, primary screen, biochemical, DTNB colorimetric, single point | UDP-N-acetylbacillosamine N-acetyltransferase PglD (Campylobacter jejuni) | purified PglD enzyme, DTNB colorimetric CoA detection | inhibition, % at 12.5 µM | 0.098% of 360,000 active | AID 602405, 2012; in the data active = inhibition above about 16%, passing the limit was not always enough
E-selectin induc – E-selectin induction in HUVECs, primary screen, imaging, HUVEC, immunofluorescence imaging, single point | AID 686992, 2013 | activation, % at 7.58 µM | normalized: neutral wells 0, TNF-alpha wells 100 | P16581 | 0.37% of 260,000 active;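 active = mean E-selectin-positive cell signal at least 10% of the positive control, reached in at least 60% of replicates, without over 20% cell loss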
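Test system: HUVEC; input: 3,000 HUVEC/well; measured by: immunofluorescence imaging; read-out: % PE-positive cells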
esBAF inh – Bmi1 luciferase reporter increase in mESCs, primary screen, esBAF inhibitor project, mouse ES cells, Bmi1 luciferase knock-in, single point; AID 602393, 2012; 2% of 350,000 active; 24 h; 100% = twice the neutral-well signal; reporter increase, % at 12.5 µM; in the data active = activation above about 40%;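 also: 0% = median of the plate's neutral control wells and 100% = double that signal; a rise in the Bmi1 reporter signal indicates esBAF inhibition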
Yeast UUG start-2 – enhancers of UUG start codon usage in yeast, dose response, S. cerevisiae, UUG firefly luciferase, cherry-pick, set 2. shares compounds with Yeast UUG start-1. luminescence, 4 h; 100% means double the DMSO signal. activation, % at 38 µM. 540 tested, under 10 active;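 active = signal increase whose fitted curve reaches an absolute level of 40 at a concentration under 10 µM; inactive = activity opposite to the expected increase, or the rest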
The depositor's hits bear a star; i = inactive; . = no result given. Rows were chosen to be rich in hits. Some 2.8% of all compounds tested hit in one or more screens of this group.

item	smiles	Yeast UUG start-2	PglD inh	E-selectin induc	PGC1a acetyl inh	Statin myotox sup	Yeast UUG start-1	esBAF inh
1	CCCCCCn1c(SCCN2CCOCC2)nc2c1c(=O)[nH]c(=O)n2C	.	3	.	4	.	-15	.
2	CCCCCn1c(SCCN2CCOCC2)nc2c1c(=O)[nH]c(=O)n2C	-8	-6	.	.	-9	361*	2
3	C[C@@H]1CCCCO[C@H](CN(C)CC2CCCCC2)[C@@H](C)CN([C@H](C)CO)C(=O)c2cc(NS(=O)(=O)c3cn(C)cn3)ccc2O1	.	-1	1	.	35	4	1
4	CC(C)NC(=O)Nc1cccc2c1O[C@H](CN(C)Cc1ccccc1)[C@H](C)CN([C@@H](C)CO)C2=O	.	1	0	-8	-12	-15	-2
5	C[C@H](CO)N1C[C@H](C)[C@@H](CN(C)CC2CCCCC2)OCCCC[C@H](C)Oc2ccc(NS(=O)(=O)c3cn(C)cn3)cc2C1=O	i	-3	0	.	-14	136*	1
6	C[C@@H]1CCCCO[C@H](CN(C)Cc2ccc(C(F)(F)F)cc2)[C@H](C)CN([C@@H](C)CO)C(=O)c2cc(NC(=O)Nc3ccc(F)cc3)ccc2O1	.	-6	.	1	.	7	-5
7	CC(C)NC(=O)Nc1cccc2c1O[C@H](CN(C)Cc1ccc(C(=O)O)cc1)[C@H](C)CN([C@H](C)CO)C2=O	i	11	-1	-5	4	132*	3
8	C[C@H]1CCCCO[C@H](CN(C)C(=O)c2ccccc2)[C@@H](C)CN([C@@H](C)CO)C(=O)c2cc(NC(=O)CCC(F)(F)F)ccc2O1	i	2	0	2	.	128*	7
9	C[C@H](CO)N1C[C@H](C)[C@H](CN(C)Cc2ccc(C(F)(F)F)cc2)OCCCC[C@H](C)Oc2ccc(NC(=O)Nc3ccc(F)cc3)cc2C1=O	i	-1	.	-29	.	120*	-8
10	CCCC#Cc1cnc2c(c1)C(=O)N([C@H](C)CO)C[C@@H](C)[C@H](CN(C)C(=O)C1CCOCC1)O2	.	.	0	10	.	.	.
11	Cc1noc(C)c1NC(=O)N(C)C[C@H]1OCCCC[C@@H](C)Oc2ccc(NS(=O)(=O)c3ccc(F)cc3)cc2C(=O)N([C@@H](C)CO)C[C@H]1C	.	-1	0	.	63	-1	0
12	Cc1noc(C)c1NC(=O)N(C)C[C@@H]1OCCCC[C@H](C)Oc2ccc(NS(=O)(=O)c3ccc(F)cc3)cc2C(=O)N([C@@H](C)CO)C[C@@H]1C	i	-4	0	.	-25	183*	2
13	C[C@H](CO)N1C[C@H](C)[C@H](CN(C)Cc2ccccc2)OCCCC[C@H](C)Oc2ccc(NS(=O)(=O)c3ccc(F)cc3)cc2C1=O	i	1	.	8	.	235*	1
14	C#CCOCCOCCOCCNc1nc(N2CCN(C(=O)[C@H](CC(N)=O)n3cc(C(N)[C@H](C)CC)nn3)CC2)nc(N2CCN(C(=O)[C@H](CC(N)=O)n3cc(C(N)[C@@H](C)CC)nn3)CC2)n1 (stereo partly drawn)	-1	-2	1	2	2	108*	-2
15	C#CCOCCOCCOCCNc1nc(N2CCN(C(=O)[C@H](CC(N)=O)n3cc(C(N)[C@@H](C)CC)nn3)CC2)nc(N2CCN(C(=O)[C@H](CCCCN)n3cc([C@@H](N)CC(N)=O)nn3)CC2)n1 (stereo partly drawn)	.	-1	1	.	7	8	10
16	C[C@@H]1CN([C@H](C)CO)S(=O)(=O)c2ccc(C#CCC3CCCC3)cc2O[C@@H]1CN(C)C(=O)CN(C)C	i	3	0	7	-45	129*	1
17	C[C@H](CO)N1C[C@H](C)[C@H](CN(C)C(=O)CN(C)C)Oc2cc(C#CCC3CCCC3)ccc2S1(=O)=O	i	0	1	-6	3	107*	3
18	C[C@@H]1CN([C@H](C)CO)C(=O)c2cc(NC(=O)Nc3ccc(F)cc3)ccc2O[C@@H]1CN(C)S(=O)(=O)c1cn(C)cn1	.	-1	6	7	-5	24	-12
19	CC(=O)Nc1ccc2c(c1)C(=O)N(C)[C@@H]1CC[C@@H](CC(=O)NCCCN3CCOCC3)O[C@H]1CO2	.	.	0	2	7	.	-2
20	COc1cccc(NC(=O)Nc2ccc3c(c2)C(=O)N(C)C[C@H](OC)[C@@H](C)CN(C)[C@@H](C)CO3)c1	.	-2	0	-6	-8	.	1
21	COc1ccc2c3c(n(C)c2c1)[C@H](CO)N(C(=O)C1CCCCC1)CC31CCN(C)CC1	.	.	0	3	.	.	.
22	O=C1c2ccccc2C(=O)c2c(Nc3ccc(CCO)cc3)ccc(O)c21	-24	2	.	1	-8	active	-8
23	O=C1COc2ccccc2N1Cc1ccc(Cl)cc1	4	3	.	0	28	167*	-11
24	O=S(=O)(c1cccs1)N1CCCCN2[C@H](CO)[C@H](c3ccc(C4=CCCCC4)cc3)[C@@H]2C1	.	-1	.	-22	.	1	.
25	O=C(CN1CCOCC1)N1CCN(c2ccc([N+](=O)[O-])cc2)CC1	-6	.	4	.	.	.	.
26	CC(C)CNC(=O)c1cccc(NC(=O)Cc2ccc(Cl)cc2)c1	-3	-2	.	-15	-18	249*	9
27	COc1ccccc1C(=O)NCC(=O)OCC(=O)c1ccc2c(c1)-c1ccccc1C2	3	0	.	-4	18	551*	-2
28	CCOc1ccc(C(=O)NCC(=O)OCC(=O)c2ccc3c(c2)-c2ccccc2C3)cc1	.	.	.	16	12	.	1
29	COc1ccc(CC(=O)Nc2ccc(S(=O)(=O)N3CCCC3)cc2)cc1OC	.	1	0	0	-1	-9	2
30	O=C(COC(=O)Cc1ccc2c(c1)OCCO2)Nc1ccc(S(=O)(=O)N2CCCC2)cc1	0	0	.	11	0	-5	-8
31	Cc1ccc(NC(=O)Cc2ccc3c(c2)OCCO3)cc1S(=O)(=O)N1CCCCC1	.	2	1	-21	-5	-7	6
32	COc1cc(CC(=O)OCC(=O)Nc2ccc(S(=O)(=O)N3CCCC3)cc2)cc(OC)c1OC	3	5	.	10	6	652*	-6
33	COc1ccc(CN(C)C[C@@H]2OCCCC[C@@H](C)Oc3ccc(NC(=O)Nc4c(C)noc4C)cc3C(=O)N([C@H](C)CO)C[C@@H]2C)cc1	.	2	0	-5	.	6	-2

Whole records, looked up by structure. Order of screens: Yeast UUG start-2 | PglD inh | E-selectin induc | PGC1a acetyl inh | Statin myotox sup | Yeast UUG start-1 | esBAF inh
CC(C)CNC(=O)c1cccc(NC(=O)Cc2ccc(Cl)cc2)c1 across the screens: -3 | -2 | . | -15 | -18 | 249* | 9
O=S(=O)(c1cccs1)N1CCCCN2[C@H](CO)[C@H](c3ccc(C4=CCCCC4)cc3)[C@@H]2C1 across the screens: . | -1 | . | -22 | . | 1 | .

Grouped by structure: those above containing an aryl thioether with sulfur outside any ring (2)
item	smiles	Yeast UUG start-2	PglD inh	E-selectin induc	PGC1a acetyl inh	Statin myotox sup	Yeast UUG start-1	esBAF inh
1	CCCCCCn1c(SCCN2CCOCC2)nc2c1c(=O)[nH]c(=O)n2C	.	3	.	4	.	-15	.
2	CCCCCn1c(SCCN2CCOCC2)nc2c1c(=O)[nH]c(=O)n2C	-8	-6	.	.	-9	361*	2

Screening data: PubChem BioAssay, Broad Institute
